Data taken from PubChem BioAssay AID588413 (Sanford-Burnham Center for Chemical Genomics, 2011).
Only a part is listed here, and it is no random draw. Some tests of the compounds listed are not included; inactive here does not mean inactive elsewhere. Activity calls are given as the source filed them.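 The calls were made as follows: active = inhibition above about 55% (limit read from the data); inactive = the rest.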

Test: blockers of Gli reporter signaling – luciferase luminescence, Sufu-KO-LIGHT cells, uHTS, primary screen (AID 588413);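 also: 0% = DMSO-treated cells and 100% = wells with medium but no cells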
Settings: Sufu-KO-LIGHT fibroblasts, at 5 µM, stronger effect = higher value

Row | SMILES | inhibition
1 | COc1cc(C(=O)NCC2(N(C)C)CCCCC2)c([N+](=O)[O-])cc1OC | inactive: 6.56%
2 | COc1ccc(Cl)cc1C(=O)NCC1(N(C)C)CCCCC1 | inactive: 17.7%
3 | COc1cccc(C(=O)NCC2(N3CCCCC3)CCCCC2)c1 | inactive: 4.66%
4 | O=C(NCC1(N2CCCCC2)CCCCC1)c1cccc(Cl)c1 | inactive: 7.86%
5 | O=C(OC1CN2CCC1CC2)C(CO)(c1ccccc1)c1ccccc1 (centres undefined) | inactive: -11.6%
6 | COc1ccc(Br)c(C(=O)NCC2(N3CCCCC3)CCCCC2)c1 | inactive: 5.02%
7 | O=C(OCCN1CCCC1)C(O)(c1ccccc1)c1ccccc1 | inactive: 3.12%
8 | CC(C)Oc1ccc(C(=O)NCC2(N(C)C)CCCCC2)cc1 | inactive: 6.78%
9 | CN(C)c1cccc(C(=O)NCC2(N(C)C)CCCCC2)c1 | inactive: 4.39%
10 | O=C(NCC1(N2CCCCC2)CCCCC1)c1cc([N+](=O)[O-])ccc1Cl | inactive: 3.56%
11 | CN1[C@@H]2CC[C@H]1CC(OC(=O)C(O)(c1ccccc1)c1ccccc1)C2 (some centres undefined) | inactive: 14.6%
12 | COc1cc(SC)ccc1C(=O)NCC1(N(C)C)CCCCC1 | inactive: 7.59%
13 | CCN(CC)CC(C)C(C)OC(=O)C(O)(c1ccccc1)c1ccccc1 (centres undefined) | inactive: 0.76%
14 | CC(C)N1C(=O)CC2(CCN(CCOC(=O)C(O)(c3ccccc3)c3ccccc3)CC2)C1=O | inactive: -1.15%
15 | Cc1ccc(C(=O)NCC2(N3CCCCC3)CCCCC2)cc1 | inactive: 20.4%
16 | CN(C)C1CCCC1OC(=O)C(O)(c1ccccc1)c1ccccc1 (centres undefined) | inactive: -1.36%
17 | CN(C)c1ccc(C(=O)NCC2(N(C)C)CCCCC2)cc1 | inactive: 0.83%
18 | Cc1ccccc1C(=O)NCC1(N2CCCCC2)CCCCC1 | inactive: -0.52%
19 | O=C(NCC1(N2CCCCC2)CCCCC1)c1cc(F)c(F)cc1Cl | inactive: -15.1%
20 | C=CCN1CCN(CCOC(=O)C(O)(c2ccccc2)c2ccccc2)CC1 | inactive: 3.31%
21 | COc1ccc(C(=O)NCC2(N(C)C)CCCCC2)cc1 | inactive: 1.57%
22 | O=C(NCC1(N2CCCCC2)CCCCC1)c1cccc(Br)c1 | inactive: 41.8%
23 | Cc1cc(C(=O)NCC2(N3CCCCC3)CCCCC2)ccc1[N+](=O)[O-] | inactive: 4.36%
24 | CCN1CCCC(OC(=O)C2(O)c3ccccc3C=Cc3ccccc32)C1 (centres undefined) | inactive: 3.77%
